# Results as given in patent US20220411759A1, “ENDOCRINE DIFFERENTIATION-INDUCING MOLECULE” (President and Fellows of Harvard College, priority 2019, published 2022).
# What was measured:
# [1] = tested on: HUES8 human embryonic stem cells; experiment: Flow cytometry of cell proportions during directed differentiation of hESCs into β cells; format: cell-based
# Procedure: (§1) HUES8 ([…]) human embryonic stem cells and human induced pluripotent stem cells (hiPSCs) from line 1016 (person) were obtained from the Human Embryonic Stem Cell Facility and iPS Core Facility of the Harvard Stem Cell Institute. Cells were differentiated into beta like cells in suspension as described previously^37. Briefly, 150Xe^6 cells were suspended in 300 ml of supplemented mTeSR1 and grown in spinning flasks (70 rpm, 37° C., 5% CO2) for 48 hours prior to the beginning of a stepwise differentiation protocol:
# Stage 4—5 days in S3 medium supplemented with KGF (50 ng/ml), Sant1 (0.25 μM) and retinoic acid (0.1 μM).
# Stage 5—7 days in BE5 medium supplemented with Beta Cellulin (20 ng/ml). XXI (1 μM), Alk5ill(10 μM) and T3 (1 μM). Sant1 (0.25 μM) was added in the first three days, and retinoic acid was added at 0.1 μM in the first three days, then at 0.025 μM.
# Stage 6—CMRLS medium supplemented with Alk5iII (10 μM) and T3 (1 μM).
# In many of the experiments following cell collection for sc-RNAseq, the protocol was slightly modified to add Y-27632 (10 μM) at stage 3-5, and ActivinA (5 ng/ml) in stage 4. In some cases, an extra day at stage 4 was also added. For the presented functional and flow cytometry analysis in stage 6, CMRLS based media was replaced with S3 medium, without supplements.
# (§2) Factors were tested in either 6-well plates placed on a rocker, or in Biott ABLE Bioreactors (Stemgent). IWR1-endo (Sigma-Aldrich) was used at 5 μM. XAV939 (Santa Cruz, SC-296704A) was used at 5 μM. Recombinant human BMP2/BMP7 (Thermo-Fisher) was used at […]. when added during stage 4, CHIR99021 was used at a concentration of […].
# Differentiated cell clusters were dispersed into single-cell suspension by incubation in TrypLE Express at 37° C., quenched with PBS+2% FBS, fixed with 4% PFA for 30 min at 4° C., washed once in PBS, and resuspended in PBS+2% FBS. Staining was done in 96-well plates. […] Cells were then washed three times in PBS+5% Donkey serum and analyzed using either the BD Accuri c6 flow cytometer or the LSR-II flow cytometer (BD Biosciences). […]
# [2] = tested on: differentiating hESC clusters; experiment: Nanostring mRNA expression of endocrine, hormone and progenitor markers in differentiating clusters; format: cell-based, human; details: added at stage 4; relative to control
# Procedure: as §2
# Cells were collected for RNA extraction in RLT Lysis Buffer (Qiagen) and frozen at −80° C. RNA was extracted using the RNeasy Mini Kit (Qiagen), according the manufacturer's instructions—including DNA digestion, and 100 ng of RNA was used for each reaction. Nanostring set up was performed according to the protocol for the nCounter XT Gene Expression Assay. Data was analyzed in the nSolver 2.5 Software. All genes were normalized to housekeeping genes (ITCH, RPL15, RPL19, TCEB1, UBE2D3). Analysis of changes in gene expression of markers for endocrine and progenitor cells was done using R.
# [3] = tested on: human induced pluripotent stem cells (hiPSCs) from line 1016; experiment: Flow cytometry of cell proportions during directed differentiation of hiPSC-1016; format: cell-based; details: stage 4
# Procedure: as §1, §2
# Differentiated cell clusters were dispersed into single-cell suspension by incubation in TrypLE Express at 37° C., quenched with PBS+2% FBS, fixed with 4% PFA for 30 min at 4° C., washed once in PBS, and resuspended in PBS+2% FBS. Staining was done in 96-well plates. Cells were incubated in blocking buffer (PBS+0.1% Triton X-100+5% donkey serum) at 4° C. for 30-60 min. […] Cells were then washed three times in PBS+5% Donkey serum and analyzed using either the BD Accuri c6 flow cytometer or the LSR-II flow cytometer (BD Biosciences). […]
# [4] = factor added during stage 4, flow cytometry at end of stage 4, vs control
molecule,measurement,setting,value
"BMP2-7: recombinant human BMP2/BMP-7 heterodimer, BMP pathway activator (protein, UniProt P12643 283-396; P18075 293-431, looked up, heterodimer) Bone morphogenetic protein 2: QAKHKQRKRLKSSCKRHPLYVDFSDVGWNDWIVAPPGYHAFYCHGECPFPLADHLNSTNHAIVQTLVNSVNSKIPKACCVPTELSAISMLYLDENEKVVLKNYQDMVVEGCGCR Bone morphogenetic protein 7: STGSKQRSQNRSKTPKNQEALRMANVAENSSSDQRQACKKHELYVSFRDLGWQDWIIAPEGYAAYYCEGECAFPLNSYMNATNHAIVQTLVHFINPETVPKPCCAPTQLNAISVLYFDDSSNVILKKYRNMVVRACGCH",number / proportion of CHGA+ endocrine cells,[1]; [4],nearly twofold decrease
same,number / proportion of PDX1+/NKX6.1+ progenitors,[1]; [4],increased by more than twofold
same,effect on CHGA+ endocrine cells and PDX1+/NKX6.1+ progenitors like that at stage 4,[1]; factor added during stage 5,not observed
same,expression of endocrine genes,[2],downregulation
same,proportion of hiPSC-1016 derived PDX+NKX6.1+ cells,[3],increases
